Data on one substance can be found in patent US6355608B1, “Detergent composition” (Shiseido Co., Ltd., priority 1998, dated 2002).

A short description of the data set: Measurement of the Krafft point (differential scanning calorimeter). The class given is physicochemical.

Take Triethanolamine hydroxylaurate: where the note is “at room temperature”, the Physical state result is reported as “liquid at room temperature”. The “Krafft point (in words)” value (compared with the salts of the invention) is reported as “lower Krafft points”.
